Measurements: US20080089874A1, “DIRECTED DIFFERENTIATION AND MATURATION OF STEM CELL-DERIVED CARDIOMYOCYTES” (The Regents of the University of California, priority 2006, published 2008)

Key:
adult guinea pig LVCMs = test: Whole-cell patch-clamp of adenovirus-transduced adult guinea pig LVCMs; assay type: cell-based
ACMs = test: Whole-cell patch-clamp of […]-transduced guinea pig ACMs; assay type: cell-based; settings: after 3 mM Ba^2+, spontaneously firing HCN-ΔΔΔ-transduced ACMs
[1] = Table 1, Spontaneously firing cells

With BaCl2 the “block of IK1” value (adult guinea pig LVCMs; 1 mmol/L Ba^2+, control LVCMs) was “completely blocked”, the “spontaneous firing slower than that of genuine guinea pig nodal cells” value (adult guinea pig LVCMs; 1 mmol/L Ba^2+, control ventricular cell) was “≈ 2.5 fold” and the APD50 (adult guinea pig LVCMs; [1]) was 296 ± 34 ms. For the same substance, the MDP (adult guinea pig LVCMs; [1]) was −46.3 ± 2.6 mV, the “Pacing Rate” value (adult guinea pig LVCMs; [1]) was 92 ± 15 bpm and the “Phase 4 Length” value (adult guinea pig LVCMs; [1]) was 465 ± 118 ms. The “Phase 4 Slope” value (adult guinea pig LVCMs; [1]) was 46.2 ± 7.6 mV/s and the RMP (ACMs) was −0.8±0.2 mV.
